Amino acid sequences for entries named in this document (tags omitted). Residues count along the entry.
UniProt P02454, 152-1207 limits assumed: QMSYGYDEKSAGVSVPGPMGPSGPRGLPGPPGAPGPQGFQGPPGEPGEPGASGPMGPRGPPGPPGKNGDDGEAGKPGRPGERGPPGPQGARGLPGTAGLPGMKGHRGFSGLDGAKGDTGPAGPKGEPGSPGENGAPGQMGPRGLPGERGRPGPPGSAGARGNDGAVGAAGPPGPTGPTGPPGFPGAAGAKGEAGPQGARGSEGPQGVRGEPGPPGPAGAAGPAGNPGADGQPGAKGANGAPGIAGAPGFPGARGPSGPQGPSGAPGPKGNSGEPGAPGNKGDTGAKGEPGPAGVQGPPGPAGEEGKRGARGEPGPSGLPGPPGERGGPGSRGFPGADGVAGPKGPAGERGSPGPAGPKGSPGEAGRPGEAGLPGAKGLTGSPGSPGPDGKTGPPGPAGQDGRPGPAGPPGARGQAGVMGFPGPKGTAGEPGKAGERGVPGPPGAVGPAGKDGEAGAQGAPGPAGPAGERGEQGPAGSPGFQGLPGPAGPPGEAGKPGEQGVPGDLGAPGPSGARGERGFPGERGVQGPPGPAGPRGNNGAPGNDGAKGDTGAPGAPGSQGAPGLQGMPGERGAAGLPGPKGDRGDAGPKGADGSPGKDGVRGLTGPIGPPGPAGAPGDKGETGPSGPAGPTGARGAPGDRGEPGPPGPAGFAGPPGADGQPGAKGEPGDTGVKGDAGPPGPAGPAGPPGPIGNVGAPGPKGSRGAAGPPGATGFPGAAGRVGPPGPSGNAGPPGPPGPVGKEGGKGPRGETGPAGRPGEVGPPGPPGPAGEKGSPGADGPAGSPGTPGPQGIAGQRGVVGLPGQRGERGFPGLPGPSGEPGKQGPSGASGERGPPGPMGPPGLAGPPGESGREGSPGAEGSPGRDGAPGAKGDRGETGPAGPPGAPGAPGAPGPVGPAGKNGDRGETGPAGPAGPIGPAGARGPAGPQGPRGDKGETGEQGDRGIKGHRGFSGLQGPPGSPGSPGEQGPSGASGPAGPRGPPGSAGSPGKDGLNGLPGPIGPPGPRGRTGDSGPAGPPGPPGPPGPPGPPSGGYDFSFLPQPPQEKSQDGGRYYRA
UniProt P02466, 86-1125 limits assumed: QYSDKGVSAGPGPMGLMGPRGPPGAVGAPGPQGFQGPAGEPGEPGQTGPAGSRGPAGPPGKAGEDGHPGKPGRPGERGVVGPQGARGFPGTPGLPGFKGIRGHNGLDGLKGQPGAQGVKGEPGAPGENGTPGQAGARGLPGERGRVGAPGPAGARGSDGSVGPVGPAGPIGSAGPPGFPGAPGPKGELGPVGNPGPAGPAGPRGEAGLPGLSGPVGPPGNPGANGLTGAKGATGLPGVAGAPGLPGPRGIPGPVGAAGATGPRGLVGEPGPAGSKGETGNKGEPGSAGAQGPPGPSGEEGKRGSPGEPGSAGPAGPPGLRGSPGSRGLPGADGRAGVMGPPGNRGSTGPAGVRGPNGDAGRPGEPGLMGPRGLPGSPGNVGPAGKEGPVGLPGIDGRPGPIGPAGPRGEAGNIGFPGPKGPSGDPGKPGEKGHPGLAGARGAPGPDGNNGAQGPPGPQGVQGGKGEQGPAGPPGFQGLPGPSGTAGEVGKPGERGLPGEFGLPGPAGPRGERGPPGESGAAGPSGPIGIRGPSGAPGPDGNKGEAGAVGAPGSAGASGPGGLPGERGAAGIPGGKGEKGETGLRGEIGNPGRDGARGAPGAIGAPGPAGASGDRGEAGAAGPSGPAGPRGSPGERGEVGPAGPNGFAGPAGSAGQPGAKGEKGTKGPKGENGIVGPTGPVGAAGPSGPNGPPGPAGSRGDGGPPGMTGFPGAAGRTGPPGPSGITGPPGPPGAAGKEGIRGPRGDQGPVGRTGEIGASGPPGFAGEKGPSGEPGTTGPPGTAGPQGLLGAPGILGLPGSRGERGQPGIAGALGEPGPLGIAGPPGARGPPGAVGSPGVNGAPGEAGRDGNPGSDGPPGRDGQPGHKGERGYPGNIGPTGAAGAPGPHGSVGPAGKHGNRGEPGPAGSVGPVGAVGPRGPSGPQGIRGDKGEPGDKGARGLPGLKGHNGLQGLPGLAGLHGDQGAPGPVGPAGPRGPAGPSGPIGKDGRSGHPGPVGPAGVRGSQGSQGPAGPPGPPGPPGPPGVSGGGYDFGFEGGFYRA

According to patent US6787566B2, “Breakers of advanced glycation endproducts” (City of Hope, priority 1999, dated 2004):

How the values were obtained:
[1] = biological target: T1, AGE cross-links in tail tendon collagen of diabetic rats (Rattus norvegicus, UniProt P02454+P02466); assay: Total pepsin digestion assay, collagen-linked fluorescence; type: biochemical; details: relative to untreated collagen of diabetic rats
T1 construct: collagen was isolated from the tail tendon of diabetic and normal controls; from tissue; host or cells: tail tendon of streptozotocin-diabetic male Sprague-Dawley rats

[2] = biological target: T1, AGE cross-links in tail tendon collagen of diabetic rats; assay: Papain digestibility assay, collagen-linked fluorescence; type: biochemical; details: relative to untreated collagen of diabetic rats

## 1,4-benzene-bis[4-methyleneaminophenoxyisobutyric acid] [LR102]
[1]; 0.1 mM
  Pepsin Digestion Assay (% decrease in fluorescence): 12.9%
[1]; 1.0 mM
  Pepsin Digestion Assay (% decrease in fluorescence): 23.8%
[1]; 10 mM
  Pepsin Digestion Assay (% decrease in fluorescence): 37.3%
[2]; 0.1 mM
  Papain digestion Assay (% decrease in fluorescence): 21.2%
[2]; 1.0 mM
  Papain digestion Assay (% decrease in fluorescence): 22.8%
[2]; 10 mM
  Papain digestion Assay (% decrease in fluorescence): 52.2%
